Assay: Average half life period was determined
Type: ADME

SMILES: O=[P@@]1(N(CCCl)CCCl)N[C@@H](O)CCO1.O=[P@@]1(N(CCCl)CCCl)N[C@H](O)CCO1
- Average half life: 59 min
